Tested on: Nc1ncnc2c1ncn2[C@@H]1O[C@H](COP(=O)(O)OP(=O)(O)OP(=O)(O)O)[C@@H](O)[C@H]1O
Assay: purified protein
Settings: Mg2+ (MgCl2), 100 mM HEPES, 20% glycerol, pH 7, 25 °C, 0-8 mM ATP, Hill coefficient 1.96

In the case of RtxB-NBD (Kingella kingae ATCC 23330), the K0.5 is reported as 0.74 ± 0.02 mM and the Vmax is reported as 227.0 ± 2.9 (s.d.).
